Like-named read-outs stand apart in the source and are kept apart here.
Legend:
[1] = Sprague-Dawley, rat, in vivo, po
[2] = Pharmacokinetic (PK) data from oral administration of DHM in enteric capsules, with or without sodium caprate; format: in vivo, Sprague-Dawley rats; conditions: rat, relative to IV AUC of Example 1

O=C1c2c(O)cc(O)cc2O[C@H](c2cc(O)c(O)c(O)c2)[C@H]1O [DHM, dihydromyricetin]
DHM Bioavailability (Fabs) [1]: 52.8±12.3
DHM Bioavailability (Fabs) ([2]; 70.6±2.7 mg/kg crystalline DHM, sodium caprate approx. 141.2 mg/kg (2:1), FIG. 3D): 51.7±10.0
DHM Bioavailability (Fabs) ([2]; 75.5±2.0 mg/kg crystalline DHM, sodium caprate approx. 75.5 mg/kg (1:1), FIG. 3C): 32.4±3.1
DHM Bioavailability (Fabs) ([2]; 92.6±3.0 mg/kg crystalline DHM, sodium caprate approx. 23.2 mg/kg (1:4), FIG. 3B): 20.4±3.6
